Measurements published in ChEMBL document CHEMBL1137608, “Design of a potent reactivator of tabun-inhibited acetylcholinesterase--synthesis and evaluation of (E)-1-(4-carbamoylpyridinium)-4-(4-hydroxyiminomethylpyridinium)-but-2-ene dibromide (K203)” (2007).

Tests used:
[1] = target: T1, Acetylcholinesterase (Rattus norvegicus) (UniProt P37136); assay: Binding affinity to tabun-inhibited AChE
T1 sequence (whole entry): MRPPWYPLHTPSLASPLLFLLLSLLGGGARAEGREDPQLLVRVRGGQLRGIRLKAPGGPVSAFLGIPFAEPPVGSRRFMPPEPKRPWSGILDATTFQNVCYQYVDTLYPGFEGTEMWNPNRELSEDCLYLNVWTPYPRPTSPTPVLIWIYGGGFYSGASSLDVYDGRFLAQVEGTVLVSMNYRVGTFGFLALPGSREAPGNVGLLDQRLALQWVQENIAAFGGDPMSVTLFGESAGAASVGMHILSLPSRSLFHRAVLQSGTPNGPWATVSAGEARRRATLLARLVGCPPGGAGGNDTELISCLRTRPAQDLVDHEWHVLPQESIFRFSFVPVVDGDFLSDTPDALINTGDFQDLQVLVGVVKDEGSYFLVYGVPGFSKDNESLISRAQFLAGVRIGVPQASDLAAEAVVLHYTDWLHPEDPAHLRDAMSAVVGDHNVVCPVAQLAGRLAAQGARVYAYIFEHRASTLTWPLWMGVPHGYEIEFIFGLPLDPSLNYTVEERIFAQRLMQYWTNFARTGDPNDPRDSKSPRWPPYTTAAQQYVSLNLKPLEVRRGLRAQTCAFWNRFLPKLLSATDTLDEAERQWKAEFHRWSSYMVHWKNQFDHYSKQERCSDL

[2] = target: T1, Acetylcholinesterase (Rattus norvegicus); assay: Reactivation activity of tabun-inhibited AChE in rat brain at 1 mM after 30 mins; set-up: scale not given: the % may be the effect or the level left
[3] = target: T1, Acetylcholinesterase (Rattus norvegicus); assay: Reactivation activity of tabun-inhibited AChE in rat brain at 10 uM after 30 mins; set-up: scale not given: the % may be the effect or the level left
[4] = target: T1, Acetylcholinesterase (Rattus norvegicus); assay: Reactivation activity of tabun-inhibited AChE in rat brain at 100 uM after 30 mins; set-up: scale not given: the % may be the effect or the level left

SMILES: C[n+]1ccccc1C=NO
- KR [1]: 575 µM

SMILES: NC(=O)c1cc[n+](CCC[n+]2ccc(/C=N/O)cc2)cc1
- KR [1]: 54 µM
- Activity [2]: 11%
- Activity [3]: 1%
- Activity [4]: 11%

SMILES: O/N=C\c1cc[n+](C/C=C/C[n+]2ccc(/C=N/O)cc2)cc1
- KR [1]: 19 µM

SMILES: O/N=C/c1cc[n+](CCC[n+]2ccc(/C=N/O)cc2)cc1
- KR [1]: 460 µM

SMILES: NC(=O)c1cc[n+](COC[n+]2ccccc2/C=N/O)cc1
- KR [1]: 6 µM
- Activity [4]: 6%

SMILES: O/N=C/c1cc[n+](CCCC[n+]2ccc(/C=N/O)cc2)cc1
- KR [1]: 29 µM
- Activity [2]: 46%
- Activity [3]: 15%
- Activity [4]: 38%

SMILES: NC(=O)c1cc[n+](C/C=C/C[n+]2ccc(/C=N/O)cc2)cc1
- KR [1]: 6 µM
